Literature values as cited in US9980972B2, “Rho kinase inhibitors for use in treating familial amyotrophic lateral sclerosis” (GEORG-AUGUST-UNIVERSITÄT GÖTTINGEN STIFTUNG ÖFFENTLICHEN …, priority 2012, dated 2018).

Details: cited from earlier work

## Nc1nc2ccc(OC(F)(F)F)cc2s1 [Riluzole]
  liver damage, share of people taking the drug: ~10%
